Earlier results as cited in patent US8916150B2 (priority 2009, dated 2014).

Columns and labels:
[1] = single dose of 50 mg of zinc; human adults
mice = settings: 500 mg Zn/L of water for up to 14 months

Substance: zinc oxide
- nausea and vomiting after single dose [1]: causes such symptoms in only a small percentage of individuals

Substance: zinc sulfate
- nausea and vomiting after single dose [1]: induces nausea and vomiting

Substance: zinc
- toxicity in mice (mice): not show significant effects
